The record followed here is patent US7456192B2, “3β-amino azabicyclooctane heteroaromatic amid derivatives preparation method and therapeutic uses thereof” (Pierre Fabre Medicament, priority 2001, dated 2008).

Molecules are shown by their SMILES.

This data set in a line: Cataleptic activity in rats, compound alone without methylphenidate. The settings on record: rat, in vivo, ip.

The term ED50 denotes the dose at which the effect has come halfway, by size or by number of responders.

For `Cc1nc2n(c(=O)c1CCN1CCC(c3noc4cc(F)ccc34)CC1)CCCC2` [Risperidone, reference compound], it took a dose of 1.2 mg/kg to reach the 50% effect level (ED50).
